Experimental data from patent US20210161997A1, “TREATING DISEASES VIA TARGETED MODULATION OF GENE SIGNALING NETWORKS” (Camp4 Therapeutics Corporation, priority 2018, published 2021).
Structures can show the parent of a compound that is named as a salt.

Key:
Type in all cases: cell-based
ANGPTL3 = assay: RNA-seq of ANGPTL3 expression in compound-treated primary human hepatocytes; conditions: additional compounds (Table 13)
Experimental: (§1) Human hepatocytes were obtained from two donors from Massachusetts General Hospital, namely MGH54 and MGH63, and one donor from Lonza, namely HUM4111B. Cryopreserved hepatocytes were cultured in plating media for 16 hours, transferred to maintenance media for 4 hours. Cultured on serum-free media for 2 hours, then a compound was added. The hepatocytes were maintained on the serum-free media for 16 hours prior to gene expression analysis. Primary human hepatocytes were stored in the vapor phase of a liquid nitrogen freezer (about −130° C.).
(§2) Human hepatocytes cultured as described above were plated in 24-well format, adding 375,000 cells per well in a volume of 500 ul plating medium. Four hours before treatment, cells were washed with PBS and the medium was changed to either: fresh maintenance medium (complete) or modified maintenance medium.
Compound stocks were prepared at 1000× final concentration and added in a 2-step dilution to the medium to reduce risk of a compound precipitating out of solution when added to the cells, and to ensure reasonable pipetting volumes. One at a time, each compound was first diluted 10-fold in warm (about 37° C.) modified maintenance medium (initial dilution=ID), mixed by vortexing, and the ID was diluted 100-fold into the cell culture (e.g. 5.1 ul into 1 well of a 24-well plate containing 0.5 mL medium). The plate was mixed by carefully swirling and after all wells were treated and returned to the incubator overnight. If desired, separate plates/wells were treated with vehicle-only controls and/or positive controls. If using multi-well plates, controls were included on each plate. After about 18 hours, cells were harvested for further analysis, e.g., ChIP-seq, RNA-seq, ATAC-seq, etc. […]
(§3) For mRNA isolation and library prep, the NEBNext Poly(A) mRNA Magnetic Isolation Module and Directional Prep kit was used. RNA isolated from cells above was quantified, and prepared in […] of each sample in 50 μl of nuclease-free water. […]
All pass filter reads from each sample were mapped against the human genome (assembly GRCh38/GCA_000001405.15 “no alt” analysis set merged with hs38d1/GCA_000786075.2) using two pass mapping via STAR version 2.5.3a (alignment parameters alignIntronMin=20; alignIntronMax=1000000; outFilterMismatchNmax=999; outFilterMismatchNoverLmax=0.05; outFilterType=BySJout; outFilterMultimapNmax=20; alignSJoverhangMin=8; alignSJDBoverhangMin=1; alignMatesGapMax=1000000) (Dobin et al., Bioinformatics (2012) 29(1):15-21). […] Standard QC were applied (read integrity, mapping statistics, library complexity, fragment bias) to remove unsatisfactory samples.

UGT1A1 = assay: RNA-seq of UGT1A1 expression in compound-treated primary human hepatocytes
Experimental: as §1, §2
Compound stocks were prepared at 1000× final concentration and added in a 2-step dilution to the medium to reduce risk of a compound precipitating out of solution when added to the cells, and to ensure reasonable pipetting volumes. One at a time, each compound was first diluted 10-fold in warm (about 37° C.) modified maintenance medium (initial dilution=ID), mixed by vortexing, and the ID was diluted 100-fold into the cell culture (e.g. 5.1 ul into 1 well of a 24-well plate containing 0.5 mL medium). […]
as §3
Standard QC were applied (read integrity, mapping statistics, library complexity, fragment bias) to remove unsatisfactory samples. […] RNA-seq signals were also normalized by read depth and visualized using the UCSC browser. […]
RNA-seq was performed to determine the effects of the compounds on the expression of the target genes in hepatocytes. Fold change was calculated by dividing the level of expression in the cell system that had been perturbed by the level of expression in an unperturbed system. […]

SERPINC1 = assay: RNA-seq of SERPINC1 expression in compound-treated primary human hepatocytes; conditions: significance FPKM ≥1, log 2(fold change) ≥0.5, q-value ≤0.05
Experimental: (§4) Human hepatocytes were obtained from two donors from Massachusetts General Hospital, namely MGH54 and MGH63, and one donor from Lonza, namely HUM4111B. Cryopreserved hepatocytes were cultured in plating media for 16 hours, transferred to maintenance media for 4 hours. Cultured on serum-free media for 2 hours, then a compound was added. The hepatocytes were maintained on the serum-free media for 16 hours prior to gene expression analysis. Primary human hepatocytes were stored in the vapor phase of a liquid nitrogen freezer (about -130° C.). Human hepatocytes cultured as described above were plated in 24-well format, adding 375,000 cells per well in a volume of 500 ul plating medium. Four hours before treatment, cells were washed with PBS and the medium was changed to either: fresh maintenance medium (complete) or modified maintenance medium. […] RNA isolated from cells above was quantified, and prepared in […] of each sample in 50 μl of nuclease-free water. […] Standard QC were applied (read integrity, mapping statistics, library complexity, fragment bias) to remove unsatisfactory samples. […] RNA-seq signals were also normalized by read depth and visualized using the UCSC browser. […] Fold change was calculated by dividing the level of expression in the cell system that had been perturbed by the level of expression in an unperturbed system.

SLC37A4 = assay: RNA-seq of SLC37A4 expression in compound-treated primary human hepatocytes
Experimental: as §1, §2
Compound stocks were prepared at 1000× final concentration and added in a 2-step dilution to the medium to reduce risk of a compound precipitating out of solution when added to the cells, and to ensure reasonable pipetting volumes. […]
as §3

NOTCH2 = assay: RNA-seq of NOTCH2 expression in compound-treated primary human hepatocytes
Experimental: as §4

JAG1 = assay: RNA-seq of JAG1 expression in compound-treated primary human hepatocytes
Experimental: as §4

CCN(CC)Cc1cc(Nc2ccnc3cc(Cl)ccc23)ccc1O [Amodiaquine dihydrochloride dihydrate]
ANGPTL3-LINEAR FOLD CHANGE (ANGPTL3): 0.4175

CCCCNc1cc(C(=O)O)cc(S(N)(=O)=O)c1Oc1ccccc1 [Bumetanide]
ANGPTL3-LINEAR FOLD CHANGE (ANGPTL3): 0.5

CCN(CC)CCCC(C)Nc1ccnc2cc(Cl)ccc12 (stereo not shown) [Chloroquine Phosphate, Chloroquine phosphate]
ANGPTL3-LINEAR FOLD CHANGE (ANGPTL3): 0.4538

CC1(COc2ccc3c(c2)ncn3-c2ccc3cccc(N4CCC(N)CC4)c3n2)COC1 [Crenolanib]
UGT1A1 Fold Change (Log2) (UGT1A1): 0.89 Log2 | SERPINC1 Fold Change (Log2) (SERPINC1): 1.31 Log2

C1=C/COCc2cc(ccc2OCCN2CCCC2)Nc2nccc(n2)-c2cccc(c2)COC/1 [Pacritinib (SB1518), Pacritinib]
SLC37A4 Fold Change (Log2) (SLC37A4): 0.93 Log2 | UGT1A1 Fold Change (Log2) (UGT1A1): 1.58 Log2 | SERPINC1 Fold Change (Log2) (SERPINC1): 2.15 Log2

O=S(=O)(c1ccccc1)N(CC(F)(F)F)c1ccc(C(O)(C(F)(F)F)C(F)(F)F)cc1 [T0901317]
ANGPTL3-LINEAR FOLD CHANGE (ANGPTL3): 2.848 | UGT1A1 Fold Change (Log2) (UGT1A1): 0.64 Log2

B1: BMP2: BMPR1A agonist/activator, TGF beta signaling; listed twice (protein, UniProt P12643 283-396, looked up)
Bone morphogenetic protein 2: QAKHKQRKRLKSSCKRHPLYVDFSDVGWNDWIVAPPGYHAFYCHGECPFPLADHLNSTNHAIVQTLVNSVNSKIPKACCVPTELSAISMLYLDENEKVVLKNYQDMVVEGCGCR
NOTCH2 Fold Change (Log2) (NOTCH2): 0 Log2 | JAG1 Fold Change (Log2) (JAG1; primary human hepatocytes): 0.99 Log2 | Significant modulation of JAG1 (in words) (JAG1; summary of Table 6): significantly modulate only JAG1
